Test results as given in patent US8633206B2, “Pyrrolo[2,3-D]pyrimidine compounds” (Pfizer Inc., priority 2009, dated 2014).

By UniProt entry, the sequences of proteins in these tests, tags left out. Where a name states a change or a piece, a line headed by the entry shows the natural chain unless it says otherwise. Residues count along the entry.
UniProt P52333, 781-1124: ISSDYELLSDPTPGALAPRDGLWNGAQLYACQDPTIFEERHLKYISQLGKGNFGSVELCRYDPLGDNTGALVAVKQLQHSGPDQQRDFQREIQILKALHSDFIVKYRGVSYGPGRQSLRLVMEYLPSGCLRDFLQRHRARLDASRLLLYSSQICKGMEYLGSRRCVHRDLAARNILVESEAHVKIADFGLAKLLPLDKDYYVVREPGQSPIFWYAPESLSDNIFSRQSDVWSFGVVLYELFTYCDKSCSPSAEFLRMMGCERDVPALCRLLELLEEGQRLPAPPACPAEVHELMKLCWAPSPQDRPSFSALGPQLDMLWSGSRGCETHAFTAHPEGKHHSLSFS
UniProt P23458: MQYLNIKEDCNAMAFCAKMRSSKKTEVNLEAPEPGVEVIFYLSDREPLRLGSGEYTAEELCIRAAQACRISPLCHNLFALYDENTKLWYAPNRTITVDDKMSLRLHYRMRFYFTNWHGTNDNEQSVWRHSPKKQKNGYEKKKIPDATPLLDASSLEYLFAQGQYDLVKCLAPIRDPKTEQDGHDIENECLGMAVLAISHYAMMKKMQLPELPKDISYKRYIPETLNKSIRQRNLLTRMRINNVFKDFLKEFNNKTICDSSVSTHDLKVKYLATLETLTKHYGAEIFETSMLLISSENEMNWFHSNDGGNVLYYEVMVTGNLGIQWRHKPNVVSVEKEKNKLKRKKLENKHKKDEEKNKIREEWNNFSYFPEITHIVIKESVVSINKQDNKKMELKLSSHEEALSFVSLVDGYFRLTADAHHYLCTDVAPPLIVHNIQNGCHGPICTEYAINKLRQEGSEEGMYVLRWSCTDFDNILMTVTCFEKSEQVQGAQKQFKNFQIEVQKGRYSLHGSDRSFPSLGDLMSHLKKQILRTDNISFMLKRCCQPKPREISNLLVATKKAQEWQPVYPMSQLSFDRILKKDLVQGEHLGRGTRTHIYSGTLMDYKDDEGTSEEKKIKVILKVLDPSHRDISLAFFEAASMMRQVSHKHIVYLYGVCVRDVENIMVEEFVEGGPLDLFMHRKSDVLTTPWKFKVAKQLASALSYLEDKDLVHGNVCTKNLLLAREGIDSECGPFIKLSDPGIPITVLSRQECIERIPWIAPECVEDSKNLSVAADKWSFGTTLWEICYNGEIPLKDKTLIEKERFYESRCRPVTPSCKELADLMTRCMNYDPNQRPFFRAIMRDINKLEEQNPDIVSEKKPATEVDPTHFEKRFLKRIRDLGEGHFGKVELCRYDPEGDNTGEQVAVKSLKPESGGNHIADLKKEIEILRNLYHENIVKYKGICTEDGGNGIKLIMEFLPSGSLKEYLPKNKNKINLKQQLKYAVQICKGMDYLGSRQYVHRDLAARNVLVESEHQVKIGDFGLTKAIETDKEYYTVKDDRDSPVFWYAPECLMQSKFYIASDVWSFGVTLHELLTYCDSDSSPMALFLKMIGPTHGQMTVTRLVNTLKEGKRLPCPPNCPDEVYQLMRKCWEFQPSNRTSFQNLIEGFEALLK
UniProt O60674, 808-1132: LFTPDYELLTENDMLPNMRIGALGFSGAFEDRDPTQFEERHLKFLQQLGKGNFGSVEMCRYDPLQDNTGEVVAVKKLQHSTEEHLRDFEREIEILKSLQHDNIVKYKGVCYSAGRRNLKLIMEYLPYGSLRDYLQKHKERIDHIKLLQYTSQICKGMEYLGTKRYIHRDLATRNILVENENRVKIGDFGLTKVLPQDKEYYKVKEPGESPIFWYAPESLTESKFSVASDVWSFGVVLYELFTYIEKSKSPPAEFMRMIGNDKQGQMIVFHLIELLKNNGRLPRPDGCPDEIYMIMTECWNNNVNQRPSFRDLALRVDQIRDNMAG

Key:
Format in all cases: biochemical
JAK3 = JAK3 (Homo sapiens (Human), UniProt P52333); test: JAK enzymatic assay (peptide mobility shift), JAK3; conditions: recombinant JAK3 1 nM, JAKtide peptide, 90 minutes
Description: (§1) Recombinant JAK1 (Catalog Number PV4775), JAK2 (Catalog Number PV4210) and JAK3 (Catalog Number PV3855) were purchased from (Invitrogen Corporation, Madison, Wis.). […] Adenosine 5′-triphosphate (ATP) was obtained from (Sigma Chemical Company, St. Louis, Mo.). […] Coating Reagent 3 was purchased from (Caliper Life Sciences, Hopkinton, Mass.).
(§2) Compounds were diluted serially in 100% dimethyl sulfoxide and tested in an 11 point dose response in duplicate or quadruplicate (200 nl of compound/DMSO was added per 10 L reaction). […] The assay was run for 240 minutes for JAK1, 150 minutes for JAK2, 90 minutes for JAK3 and 70 minutes for Tyk2. […] The plates were placed on a LabChip 3000 (LC3000) instrument from (Caliper Life Sciences) to measure the formation of phosphorylated peptide. Data was analyzed using Hits Well Analyzer Software from (Caliper Life Sciences) to obtain the amount of product formed.
(§3) Data was then imported into an internal application where each data point is expressed as % inhibition based on uninhibited and no enzyme controls. Dose-response data is then fit using a 4 parameter logistic equation (Equation 1) to determine an IC50.

JAK1 = JAK1 (Homo sapiens (Human), UniProt P23458); test: JAK enzymatic assay (peptide mobility shift), JAK1; conditions: recombinant JAK1 20 nM, IRS-1 peptide, 240 minutes
Description: as §1, §2, §3

JAK2 = JAK2 (Homo sapiens (Human), UniProt O60674); test: JAK enzymatic assay (peptide mobility shift), JAK2; conditions: recombinant JAK2 2 nM, JAKtide peptide, 150 minutes
Description: Recombinant JAK1 (Catalog Number PV4775), JAK2 (Catalog Number PV4210) and JAK3 (Catalog Number PV3855) were purchased from (Invitrogen Corporation, Madison, Wis.). Tyk2 (His-Tyk2 (888-1182, C936S, C1142S)) used in this study was expressed and purified at Pfizer Laboratories. Adenosine 5′-triphosphate (ATP) was obtained from (Sigma Chemical Company, St. Louis, Mo.). […] Coating Reagent 3 was purchased from (Caliper Life Sciences, Hopkinton, Mass.).
A peptide mobility shift assay was used to quantify the phosphorylation of the JAKtide (JAK2 and JAK3) or the IRS-1 peptide (JAK1 and Tyk2). Reactions were carried out in a 384-well plate (Matrical MP-101) in a 10 L total volume. […] Compounds were diluted serially in 100% dimethyl sulfoxide and tested in an 11 point dose response in duplicate or quadruplicate (200 nl of compound/DMSO was added per 10 L reaction). The reactions were initiated by the addition of enzyme to the final concentration of 2 nM JAK2, 1 nM JAK3, 12 nM Tyk2 or 20 nM JAK1. The assay was run for 240 minutes for JAK1, 150 minutes for JAK2, 90 minutes for JAK3 and 70 minutes for Tyk2. […] Data was analyzed using Hits Well Analyzer Software from (Caliper Life Sciences) to obtain the amount of product formed.
Data was then imported into an internal application where each data point is expressed as % inhibition based on uninhibited and no enzyme controls. […]

SMILES	IC50 (JAK3)	IC50 (JAK1)	IC50 (JAK2)
CCOCCO[C@@H]1CCN(S(=O)(=O)C[C@H]2CC[C@H](N(C)c3ncnc4[nH]ccc34)CC2)C1 [Example 28, N-[trans-4-({[(3R)-3-(2-ethoxyethoxy)pyrrolidin-1-yl]sulfonyl}methyl)-cyclohexyl]-N-methyl-7H-pyrrolo[2,3-d]pyrimidin-4-amine]	249 nM		
CN(c1ncnc2[nH]ccc12)[C@H]1CC[C@H](CS(=O)(=O)N2CC[C@H](O)C2)CC1 [Example 25, (3S)-1-[({trans-4-[methyl(7H-pyrrolo[2,3-d]pyrimidin-4-yl)amino]-cyclohexyl}methyl)sulfonyl]-pyrrolidin-3-ol]	335 nM	13.3 nM	
C[C@@H]1C[C@@H](CS(=O)(=O)N2CC[C@@H](CO)C2)CC[C@@H]1N(C)c1ncnc2[nH]ccc12 [Example 132, {(3R)-1-[({(1S,3R,4S)-3-methyl-4-[methyl(7H-pyrrolo[2,3-d]pyrimidin-4-yl)amino]cyclohexyl}methyl)-sulfonyl]pyrrolidin-3-yl}methanol]			17.8 nM
